The target in this assay is human FXa (Homo sapiens, UniProt P00742). The assay can be described thus: Inhibitory Effect on Human Activated Coagulation Factor X (FXa). The conditions noted are these: concentration of the test compound which inhibits 50% of FXa activity; substrate S-2765, 37° C., absorbance at 405 nm; tested form: HCl. As to the method: (1) Inhibitory Effect on Human Activated Coagulation Factor X (FXa)
In 0.05M Tris-HCl buffer solution (pH 8.3) 225 μl containing 0.145 M sodium chloride and 2 mM calcium chloride, test compound dissolved in dimethylsulfoxide 51 and human FXa (0.3 unit/ml) 10 μl were reacted at 37° C. for 10 minutes. To the reaction solution was added substrate (3 mM, S-2765) 10 μl and the mixture was further reacted at 37° C. for 10 minutes. To the reaction solution was added 50% acetic acid aqueous solution 25 μl to stop the reaction.
IC50 values (concentration of the test compound which inhibits 50% of FXa activity) were calculated by measuring change of absorbance at 405 nm with microplate reader.

By UniProt entry, the sequences of proteins in these tests, tags left out. Residues count along the entry.
UniProt P00742, 235-488 limits assumed: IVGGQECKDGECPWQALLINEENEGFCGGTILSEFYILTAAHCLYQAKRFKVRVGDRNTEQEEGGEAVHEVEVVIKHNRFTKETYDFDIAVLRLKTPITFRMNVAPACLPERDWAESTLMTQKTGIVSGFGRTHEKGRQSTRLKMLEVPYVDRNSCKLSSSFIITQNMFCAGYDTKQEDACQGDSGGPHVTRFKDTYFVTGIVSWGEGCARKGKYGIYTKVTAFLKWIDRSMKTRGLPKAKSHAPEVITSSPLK
UniProt P00742, 41-179 partner limits assumed: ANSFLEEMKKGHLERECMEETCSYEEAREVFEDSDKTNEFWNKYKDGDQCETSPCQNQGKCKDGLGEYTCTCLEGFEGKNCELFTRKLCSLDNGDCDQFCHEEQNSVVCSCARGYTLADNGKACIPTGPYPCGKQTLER

The values below come from patent publication US6403595B1.

For `N=C(N)c1ccc(CN2CCN(S(=O)(=O)c3ccc4cc(Cl)ccc4c3)CC2=O)cc1`, the IC50 came to 50 nM.

In general, IC50 refers to the concentration needed to halve the response being measured. A lower IC50 goes with inhibition by little substance.
